This is an account of results in ChEMBL document CHEMBL4033620, “Design, synthesis and biological evaluation of quinoline derivatives as HDAC class I inhibitors” (Eur J Med Chem, 2017).

This assay deals with T1, Histone deacetylase 8 (Homo sapiens, UniProt Q9BY41).
T1 sequence (Q9BY41 whole entry): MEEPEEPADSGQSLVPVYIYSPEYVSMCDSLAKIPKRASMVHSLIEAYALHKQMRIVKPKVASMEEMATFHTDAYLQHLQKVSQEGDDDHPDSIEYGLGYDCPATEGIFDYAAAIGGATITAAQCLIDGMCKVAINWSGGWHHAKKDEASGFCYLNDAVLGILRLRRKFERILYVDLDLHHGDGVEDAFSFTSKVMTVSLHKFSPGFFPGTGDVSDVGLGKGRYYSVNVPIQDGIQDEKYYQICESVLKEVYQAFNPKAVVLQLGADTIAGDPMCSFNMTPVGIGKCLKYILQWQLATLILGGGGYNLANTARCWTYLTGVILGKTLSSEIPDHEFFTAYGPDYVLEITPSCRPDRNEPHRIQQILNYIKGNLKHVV
As to the kind of experiment: Inhibition of HDAC8 (unknown origin) using substrate after 30 mins by fluorometric analysis.

Molecules are shown by their SMILES.

What is called IC50 is the point on the concentration scale where inhibition reaches its midpoint. The low end stands for greater potency in that assay, the high end for weaker potency in that assay.

Compound `O=C(CCCCCCC(=O)Nc1ccccc1)NO` [VORINOSTAT] registered an IC50 of 7.47 µM.
